The results in this text go back to PubChem BioAssay AID1671194 (National Center for Advancing Translational Sciences (NCATS), 2021).

Each structure is given as a SMILES string. The entries are a selection whose mix differs from that of the whole data set. Records with an inconclusive call do not appear. The source made the active and inactive calls. Calls come from the whole dose curve; as a rule, active = well fitted inhibition curve with a large enough effect; inconclusive = small, poorly fitted or top-dose-only effect; inactive = no such curve, though single readings can be large or run the other way.

The assay is described as follows: Primary qHTS assay for inhibitors of alpha-synuclein gene (SNCA) expression. Note: nearly all actives have a fitted effect of over 45% in size. The following applies: HEK-293 SNCA-luciferase knock-in, luminescence, 24 h; at 25.6 µM (top of the series) unless noted. The text has this: Assay Submitter (PI): Daniel R. Scoles Ph.D.
Department of Neurology, University of Utah, Salt Lake City, Utah
Accumulation of alpha-synuclein is a main underlying pathological feature of Parkinson's disease (PD) and alpha-synucleinopathies, for which lowering expression of the alpha-synuclein gene (SNCA) is a potential therapeutic avenue. Using a cell-based luciferase reporter of SNCA expression we performed a quantitative high throughput screen (qHTS) of 155,885 compounds in dose response. The screening assay was generated using genome editing to insert the luciferase gene downstream and in frame of the SNCA gene in HEK-293 cells (1). A viability counterscreen using GF-AFC was used to eliminate cytotoxic and false positive compounds. After in silico analysis (clustering, removal of frequent hitter nuisance chemotypes), inhibitor compounds from the primary screen were selected for follow up and re-tested at 11-doses in the SNCA-luc cells (luciferase and GF-AFC confirmation), and in CMV-luc expressing cell line to flag general transcriptional repressors.
Described herein are the results of the primary screen for SNCA inhibitors; decrease in luciferase signal (inhibition of the SNCA gene expression) is the desired output for this assay.
1. Dansithong, W., Paul, S., Scoles, D. R., Pulst, S. M., and Huynh, D. P. (2015) Generation of SNCA Cell Models Using Zinc Finger Nuclease (ZFN) Technology for Efficient High-Throughput Drug Screening. PLoS ONE 10, e0136930.
SEQUENCE No. (e.g., 1, 2, 3, etc.); […] (e.g., Cells, Incubation, Reagent, etc.); VALUE; DESCRIPTION
1; Cells; 4 uL; Dispense 1500 HEK-293-SNCA-luc cells/well into Greiner 1536-well white / solid bottom tissue culture treated plate. The plate was covered with metal lids with gas-exchange holes.
2; Incubate; 24 hours; Incubate at 37C, 5% CO2, 95% RH.
3; Compounds; 23 nL; Compounds and controls were transferred via a Kalypsys Pin Tool (Wako USA) equipped with a 1536-slotted pin array. The plate was covered with metal lids with gas-exchange holes.
4; Incubate; 24 hours; Incubate at 37C, 5% CO2, 95% RH.
5; Dispense; 1 uL; Dispense Gly-Phe-7-amino-4-trifluoromethylcoumarin (GF-AFC, prepared at 125 uM in PBS) was added. The plate was covered with metal lids with gas-exchange holes.
6; Incubate; 30 min; Incubate at 37C, 5% CO2.
7; Detector; Fluorescence; Measure fluorescence with ViewLux microplate reader (PerkinElmer) equipped with 405/10 excitation and 540/25 emission filters.
8; Dispense; 3 uL; Dispense ONE-Glo ([…]) lucifase detection reagent was added to each well. Plates were covered with metal lids with gas-exchange holes.
9; Incubate; 15 min; Incubate at room temperature.
10; Detector; Luminescence; Measure luminescence with ViewLux microplate reader (PerkinElmer) equipped with clear filters.
NOTES (numbers refer to sequence above)
1; HEK-293-SNCA-luc were cultured and suspended in phenol-red free DMEM (4.5 g/L glucose, 25 mM HEPES, cat #21063 (Thermo)).
3; Compounds were added to the assay plate in an 11-point intra plate dose response, 1:3 titration in DMSO with a final concentration range of […]. Vehicle-only plates, with DMSO being pin-transferred to every well, were inserted at the beginning of screening runs to confirm expected assay performance. Activity was normalized to wells containing medium only (-100% activity, full inhibition) and SNCA-luc cells treated with DMSO vehicle control (0% activity), contained on the same plate as test samples.
10; Signals were analyzed, and dose-response curves were fit using the Hill equation. Compounds in curve classes -1.1, -1.2, -2.1, -2.2 in the SNCA-luc assay were considered active. Compounds were eliminated from further consideration if also active (curve class -1.1, -1.2, -1.3, -1.4, -2.1, -2.2, -2.3, -2.4) in the GF-AFC cytotoxicity assay.
(qHTS replaces the single test concentration by a dilution series.)
As for `Cc1cccc([N+](=O)[O-])c1[N+](=O)[O-]`, the activity change, negative = inhibition is inactive: 15.8%.
Under `CCOP(=O)(CC)Oc1ccc([N+](=O)[O-])cc1` (stereo unspecified) stands inactive: -23.8%.
For `C/C1=C2N=C(/C=C3N=C(/C(C)=C4\[N-][C@@](C)([C@@H]5N=C1[C@](C)(CCC(=O)NC[C@@H](C)OP(=O)([O-])O[C@H]1[C@@H](O)[C@@H](n6cnc7cc(C)c(C)cc76)O[C@@H]1CO)[C@H]5CC(N)=O)[C@@](C)(CC(N)=O)[C@@H]4CCC(N)=O)[C@@](C)(CC(N)=O)[C@@H]\3CCC(N)=O)C(C)(C)[C@@H]/2CCC(N)=O.[C-]#N.[Co+3]` the value was inactive: -33.4%.
For `OCCSCCO` the value was inactive: -41.3%; for `CC1=C2[N-][C@@](C)([C@@H]3N=C(C(C)=C4N=C(C=C5N=C1[C@@](C)(CC(N)=O)[C@H]5CCC(N)=O)C(C)(C)[C@H]4CCC(N)=O)[C@](C)(CCC(=O)NC[C@@H](C)OP(=O)([O-])O[C@H]1[C@@H](O)[C@@H](n4cnc5cc(C)c(C)cc54)O[C@H]1CO)[C@H]3CC(N)=O)[C@@](C)(CC(N)=O)[C@@H]2CCC(N)=O.[C-]#N.[Co+3]`, inactive: -27.6%.
As to `O=[N+]([O-])c1cccc([N+](=O)[O-])c1`, the activity change, negative = inhibition was inactive: -25.6% [at 57.2 µM].
